From ChEMBL document CHEMBL1140323, “Biaryl ureas as potent and orally efficacious melanin concentrating hormone receptor 1 antagonists for the treatment of obesity” (J Med Chem, 2005)
Some compounds may have been tested in ways that are not shown here.

By UniProt entry, the sequences of proteins in these tests, tags left out.
UniProt Q99705, whole entry: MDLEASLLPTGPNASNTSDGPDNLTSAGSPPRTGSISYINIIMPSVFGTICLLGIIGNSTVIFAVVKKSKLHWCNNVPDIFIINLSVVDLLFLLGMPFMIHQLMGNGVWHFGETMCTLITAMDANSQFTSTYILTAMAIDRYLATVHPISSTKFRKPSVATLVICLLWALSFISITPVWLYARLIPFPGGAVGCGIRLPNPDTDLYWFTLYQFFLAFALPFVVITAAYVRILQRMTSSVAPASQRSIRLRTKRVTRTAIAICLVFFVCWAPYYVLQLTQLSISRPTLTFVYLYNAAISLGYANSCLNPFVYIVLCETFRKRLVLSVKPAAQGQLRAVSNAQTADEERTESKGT

The compounds below were run against Melanin-concentrating hormone receptor 1 (Homo sapiens, UniProt Q99705) (assay: Inhibition of human melanin concentrating hormone receptor 1).

| Compound | Ki |
| --- | --- |
| CCN1CCC(N(C(=O)Nc2ccc(F)c(C(F)(F)F)c2)c2ccc(-c3cccc(C#N)c3)cc2)CC1 | 7.1 nM |
| O=C(Nc1cc(Cl)cc(Cl)c1)N(c1ccc(-c2cccc(Cl)c2)cc1)C1CCN(C2CCCC2)CC1 | 12.5 nM |
| N#Cc1cccc(-c2ccc(N(C(=O)Nc3cc(Cl)cc(Cl)c3)C3CCN(C4CCCC4)CC3)cc2)c1 | 2.6 nM |
| N#Cc1cccc(-c2ccc(N(C(=O)Nc3ccc(F)c(C(F)(F)F)c3)C3CCN(CC4CC4)CC3)cc2)c1 | 4 nM |
| N#Cc1cccc(-c2ccc(N(C(=O)Nc3ccc(F)c(Cl)c3)C3CCN(C4CCCC4)CC3)cc2)c1 | 1.6 nM |
| COc1ccc(NC(=O)N(c2ccc(-c3cccc(C#N)c3)cc2)C2CCN(C3CCCC3)CC2)cc1 | 139 nM |
| O=C(Nc1cc(Cl)cc(Cl)c1)N(c1ccc(-c2cccc(OC(F)(F)F)c2)cc1)C1CCN(C2CCCC2)CC1 | 20 nM |
| N#Cc1cccc(-c2ccc(N(C(=O)Nc3ccc(F)c(C(F)(F)F)c3)C3CCN(C4CCCC4)CC3)cc2)c1 | 1.9 nM |
| N#Cc1cccc(-c2ccc(N(C(=O)Nc3ccccc3)C3CCN(C4CCCC4)CC3)cc2)c1 | 233 nM |
| COc1cccc(NC(=O)N(c2ccc(-c3cccc(C#N)c3)cc2)C2CCN(C3CCCC3)CC2)c1 | 98 nM |
| N#Cc1cccc(-c2ccc(N(C(=O)Nc3cccc(Cl)c3)C3CCN(C4CCCC4)CC3)cc2)c1 | 5.8 nM |
| O=C(Nc1cc(Cl)cc(Cl)c1)N(c1ccc(-c2cccc(C(F)(F)F)c2)cc1)C1CCN(C2CCCC2)CC1 | 197 nM |
